Results as given in PMC7611678 (ACS catalysis, 2021).
Structures can show the parent of a compound that is named as a salt.

Test system: HspUPO
Conditions: 2 mM H2O2, McIlvaine buffer pH 4, 25 °C; glycosylated enzyme

Km: 30 ± 3.65 µM
SMILES: CCn1c(=NN=c2sc3cc(S(=O)(=O)O)ccc3n2CC)sc2cc(S(=O)(=O)O)ccc21 [ABTS, 2,2'-Azino-bis(3-ethylbenzothiazoline-6-sulfonic acid) diammonium salt]
